{
  "sequences": {"note": "Chains of the proteins cited; added tags and fusions are not shown.", "UniProt P51452, whole entry": "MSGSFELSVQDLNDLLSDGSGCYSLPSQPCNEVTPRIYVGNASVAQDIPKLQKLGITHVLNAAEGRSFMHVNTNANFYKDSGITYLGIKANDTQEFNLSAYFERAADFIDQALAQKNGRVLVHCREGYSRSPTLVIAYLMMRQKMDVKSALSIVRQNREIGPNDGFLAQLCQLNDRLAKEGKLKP"},
  "source": "PubChem BioAssay AID1654",
  "about": "(Sanford-Burnham Center for Chemical Genomics, 2009)",
  "note": "Only a part is listed here, and it is no random draw. Active and inactive are the calls of the source. Cut-off read from the data, not from the text of the source: active = inhibition above about 50%; inactive = the rest.",
  "data": [
    {"molecular_target": "Dual specificity protein phosphatase 3 (Homo sapiens) (UniProt P51452)", "assay": "VHR1 phosphatase inhibitors, primary screen, biochemical, absorbance, uHTS (AID 1654)", "details": "recombinant VHR phosphatase, pNPP absorbance; at 13.3 µM; hits give high values", "values": [
      {"smiles": "COc1ccc2nc(NP(=O)(c3ccccc3)c3ccccc3)sc2c1", "inhibition": "inactive: 14.5%"},
      {"smiles": "O=P1(Nc2nc3ccc(Cl)cc3s2)COc2ccccc2O1", "note": "(configuration not stated)", "inhibition": "inactive: -11.9%"}
    ]}
  ]
}
